# Assay results from patent US5383848A, “Iontophoretic administration of drugs” (Gensia, Inc., priority 1991, dated 1995).
# Values joined by “and” are separate entries in the source; they are usually repeats but may differ in a detail not shown here. Equal values may be shown once.
# System: elevated heart rate
# Assay: Additional in vivo dog experiments: dermal clearance enhancer pretreatment then arbutamine TDI (Example C)
# Set-up: species or system labrador dogs
# Settings: heart rate decline, Table VII, single dog run; listed as 1% Tolazoline
# Experimental: Additional experiments were performed to study the effect of certain compositions on the offset time and dermal clearance in dogs.
# In these experiments, the formulation to be tested was applied either topically or by transdermal iontophoresis (TDI) as described below.
# Six labrador dogs (20 to 30 kg) were trained to lie quietly on a table. Before each experiment, three ECG electrodes (one lead) were applied on shaved areas of the back (near the front legs) to obtain the heart rate. The outer hind leg area (either right or left) was shaved prior to each experiment, with care taken not to cut or visibly damage the skin. […]
# Each vasodilator that was delivered by TDI used a 1.8 cm^2 electrode (Graphic Controls, Buffalo, N.Y.) containing the vasodilator in a gel at the concentrations listed in experimental methods section. […] During this time the heart rate was continuously recorded (at 5 second intervals) with the ESA Research System. […]
# Each topically applied vasodilator was applied to the skin in a volume of approximately 0.25 ml. The agent was allowed to absorb into the skin, during which time the heart rate was continuously recorded for 10 minutes using the ESA Research System.
# To test if heat alone would produce sufficient vasodilation, a 60° C. hot pack was applied to the skin 10 minutes prior to drug delivery, during which time the heat rate was continuously recorded by the ESA System. […]
structure (smiles),measurement,value
c1ccc(CC2=NCCN2)cc1 [Tolazoline],HALF-LIFE,14.06 min and 32.06 min and 17.47 min and 19.23 min and 21.36 min and 10.47 min
